Source: US10683267B1, “Antidiabetic compounds” (King Abdulaziz University, priority 2019, dated 2020)
Where two headings read alike, the source gives them in different places.

Sequences of proteins named here, by UniProt entry; tags and fusion partners are left off.
UniProt P27487, whole entry: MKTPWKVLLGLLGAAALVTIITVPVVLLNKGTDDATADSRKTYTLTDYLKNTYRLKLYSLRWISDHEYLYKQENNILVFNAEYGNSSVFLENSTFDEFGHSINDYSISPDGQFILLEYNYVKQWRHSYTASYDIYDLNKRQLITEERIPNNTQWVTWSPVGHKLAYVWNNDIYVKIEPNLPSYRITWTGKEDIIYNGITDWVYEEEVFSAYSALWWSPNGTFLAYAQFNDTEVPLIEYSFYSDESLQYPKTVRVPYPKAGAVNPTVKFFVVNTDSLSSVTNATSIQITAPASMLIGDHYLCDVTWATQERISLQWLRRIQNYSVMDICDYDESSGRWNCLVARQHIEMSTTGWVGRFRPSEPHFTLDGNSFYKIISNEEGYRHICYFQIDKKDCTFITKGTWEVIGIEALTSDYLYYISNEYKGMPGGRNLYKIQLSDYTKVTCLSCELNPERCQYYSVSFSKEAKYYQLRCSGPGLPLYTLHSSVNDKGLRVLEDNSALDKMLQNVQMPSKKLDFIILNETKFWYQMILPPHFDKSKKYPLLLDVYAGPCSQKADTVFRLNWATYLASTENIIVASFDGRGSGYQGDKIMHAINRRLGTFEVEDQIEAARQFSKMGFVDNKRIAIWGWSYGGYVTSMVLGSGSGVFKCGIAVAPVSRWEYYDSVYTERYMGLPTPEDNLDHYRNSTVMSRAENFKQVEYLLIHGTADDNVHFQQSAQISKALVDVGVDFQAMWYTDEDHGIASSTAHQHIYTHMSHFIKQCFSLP

Legend:
diabetic mice [1] = test: Oral glucose tolerance test (OGTT) after single dose in diabetic mice; format: in vivo; details: Table 6, relative potency, B.G. = blood glucose
DPP-IV enzyme = DPP-IV enzyme (Homo sapiens, UniProt P27487); test: In vitro DPP-IV inhibition assay (Biovision kit, fluorescence); format: biochemical
diabetic mice [2] = test: Oral glucose tolerance test (OGTT) after multiple doses (6 days) in diabetic mice; format: in vivo; details: Table 6, relative potency, B.G. = blood glucose

## O=C(CNC12CC3CC(CC(O)(C3)C1)C2)Nc1ccccc1
Diabetic mice [1]
  R.P. to Vildagliptin (Single Dose): Increased B.G.
DPP-IV enzyme; Table 2, head prints no unit, nM per Table 6
  IC50: 5.88 nM
DPP-IV enzyme; Table 6
  IC50: 5.88 nM
DPP-IV enzyme; compound at 100 nM
  % Inhibition @ 100 nM: 79.97%
DPP-IV enzyme; read-out: enzymatic inhibition value / inhibitory activity (IC50) as stated in text
  IC50: 5.9 nM
Diabetic mice [2]
  R.P. to Vildagliptin (6 Days): Increased B.G.
